Only a part is listed here, and it is no random draw. Some results for these compounds are left out of this collection, so the calls shown say nothing about other tests. The source made the active and inactive calls. Rule as the data show it: active = survival mostly below about 52% (no sharp cut-off); inactive = mostly above about 56%.

The subject of this test is Wild type. Briefly: growth inhibition of S. aureus wild type versus tarO mutant, primary screen, teichoic acid synthesis inhibitors, RN4220, OD600 (AID 463173). The following applies: S. aureus RN4220 wild type/DeltatarO growth, OD600, 18 h, active compounds read low, screened at 18.75 µg/mL (by protocol).
For the molecule `CCOc1cccc(C(=O)NCC2(N(C)C)CCCCC2)c1`, the survival was inactive: 88%.

`CN(C)C1(CNC(=O)c2ccccc2[N+](=O)[O-])CCCCC1`: the survival was inactive: 98%.

With `CCCCOc1ccccc1C(=O)NCC1(N(C)C)CCCCC1`, the survival was inactive: 90%.

As to `CN(C)C1(CNC(=O)c2cccc(Cl)c2)CCCCC1`, the survival was inactive: 91%.

With `CN(C)C1(CNC(=O)c2ccccc2F)CCCCC1`, the survival is inactive: 89%.

With `Cc1cccc(C(=O)NCC2(N(C)C)CCCCC2)c1`, the survival is inactive: 87%.

With `COc1cc(C(=O)NCC2(N(C)C)CCCCC2)cc(OC)c1OC`, the survival was inactive: 90%.

Turning to `CN1C2CCC1CC(OC(=O)C(O)(c1ccccc1)c1ccccc1)C2` (configuration not stated), the survival was inactive: 109%.

Take `CC(C)Oc1ccc(C(=O)NCC2(N(C)C)CCCCC2)cc1`: the survival is inactive: 87%.

Regarding `COc1cccc(C(=O)NCC2(N3CCOCC3)CCCCC2)c1`, the survival is inactive: 97%.

Consider `CC(C)COc1ccc(C(=O)NCC2(N(C)C)CCCCC2)cc1`, for which the survival was inactive: 88%.

Consider `COc1ccc(C(=O)NCC2(N(C)C)CCCCC2)cc1Cl`, for which the survival is inactive: 88%.

Values taken from PubChem BioAssay AID463173 (ICCB-Longwood Screening Facility, Harvard Medical School, 2010).
